# Source: patent US20240269252A1, “COMPOSITIONS FOR INDUCING AN IMMUNE RESPONSE” (President and Fellows of Harvard College, priority 2017, published 2024)
# Assay: Biomolecule release quantification: incorporation efficiency and release kinetics of CpG ODN, GM-CSF and antigen from cryogel vaccines
# Assay type: physicochemical
sequence,measurement,setting,value
RMFPNAPYL (Arg-Met-Phe-Pro-Asn-Ala-Pro-Tyr-Leu) [WT-1126-134],encapsulation efficiency,encapsulated in vaccine cryogel by cryo-polymerization,75%
same,burst release of loaded antigen,"from vaccine cryogel, over the first two days, in vitro",3.3%
same,amount released after the burst release,over a period of 10 days after the burst release,~4 µg
